# Cyclic peptide permeability, from CycPeptMPDB

Collected by the curators of CycPeptMPDB (Li et al. 2023) from Townsend et al. 2020, doi:10.26434/chemrxiv.13335941.v1.

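The data file gives no further conditions (lipid, pH, time, direction or concentration), and values from different papers need not be comparable. Other peptides of the study may be missing here. Entries at the database's floor value (log10 P of -10) are not listed.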

PAMPA measures passive passage through an artificial lipid membrane.
Permeability is in 10^-6 cm/s, converted from the database's log10 values; higher is more permeable.

For CC(C)C[C@@H]1C(=O)N(C)[C@@H](CC(C)C)C(=O)N2CCC[C@H]2C(=O)N(C)[C@@H](CC(C)C)C(=O)N[C@@H](Cc2ccccc2)C(=O)N[C@@H](Cc2ccccc2)CC(=O)N1C the data give PAMPA 6.5 × 10^-6 cm/s. The entry for CC(C)C[C@@H]1NC(=O)[C@@H](C)NC(=O)[C@H](Cc2ccccc2)NC(=O)[C@@H](CC(C)C)NC(=O)[C@H]2CCCN2C(=O)[C@@H](CC(C)C)N(C)C1=O lists PAMPA 1.2 × 10^-6 cm/s. CC(C)C[C@@H]1C(=O)N[C@@H](Cc2ccccc2)C(=O)N2CCC[C@H]2C(=O)N[C@H](C)C(=O)N(C)[C@@H](CC(C)C)C(=O)N[C@@H](Cc2ccccc2)CC(=O)N2CCC[C@H]2C(=O)N1C has PAMPA 2 × 10^-6 cm/s. CC(C)C[C@@H]1C(=O)N[C@H](CC(C)C)C(=O)N2CCC[C@@H]2C(=O)N(C)[C@H](CC(C)C)C(=O)N[C@@H](Cc2ccccc2)C(=O)N2CCC[C@@H]2C(=O)N[C@@H](C)C(=O)N1C has PAMPA 4.9 × 10^-6 cm/s. For CC(C)C[C@@H]1NC(=O)[C@@H](C)NC(=O)[C@@H]2CCCN2C(=O)[C@H](Cc2ccccc2)NC(=O)[C@H](CC(C)C)N(C)C(=O)[C@H]2CCCN2C(=O)CN(Cc2ccccc2)C1=O the data give PAMPA 1.6 × 10^-6 cm/s.

Listed for CC(C)C[C@@H]1C(=O)N(Cc2ccccc2)CC(=O)N2CCC[C@H]2C(=O)N(C)[C@@H](CC(C)C)C(=O)N[C@@H](Cc2ccccc2)C(=O)N2CCC[C@@H]2C(=O)N(C)[C@@H](C)C(=O)N1C: PAMPA 6.3 × 10^-6 cm/s. Listed for CCCN1CC(=O)N(C)[C@@H](CC(C)C)C(=O)N(C)[C@H](CC(C)C)C(=O)N2CCC[C@H]2C(=O)N[C@@H](CC(C)C)C(=O)N[C@@H](Cc2ccccc2)C(=O)N2CCC[C@H]2C1=O: PAMPA 2 × 10^-6 cm/s. The entry for CCCN1CC(=O)N[C@@H](CC(C)C)C(=O)N[C@H](CC(C)C)C(=O)N2CCC[C@H]2C(=O)N(C)[C@@H](CC(C)C)C(=O)N[C@@H](Cc2ccccc2)C(=O)N2CCC[C@@H]2C1=O lists PAMPA 3.5 × 10^-6 cm/s. Listed for CC(C)C[C@H]1NC(=O)C[C@H](Cc2ccccc2)NC(=O)[C@H]2CCCN2C(=O)[C@H](Cc2ccccc2)NC(=O)[C@@H](CC(C)C)NC(=O)[C@@H]2CCCN2C(=O)[C@@H](CC(C)C)NC1=O: PAMPA 1.4 × 10^-6 cm/s. Listed for CCCN1CC(=O)N(C)[C@@H](CC(C)C)C(=O)N[C@H](CC(C)C)C(=O)N2CCC[C@H]2C(=O)N(Cc2ccccc2)CC(=O)N[C@@H](Cc2ccccc2)C(=O)N2CCC[C@@H]2C1=O: PAMPA 0.44 × 10^-6 cm/s.

CC(C)C[C@@H]1NC(=O)[C@@H](CC(C)C)N(C)C(=O)[C@H](C)N(C)C(=O)[C@H]2CCCN2C(=O)[C@H](Cc2ccccc2)NC(=O)CN(Cc2ccccc2)C(=O)[C@H]2CCCN2C1=O has PAMPA 3.1 × 10^-6 cm/s. For CC(C)C[C@@H]1NC(=O)CN(Cc2ccccc2)C(=O)[C@H](C)N(C)C(=O)[C@H]2CCCN2C(=O)[C@H](Cc2ccccc2)NC(=O)CN(Cc2ccccc2)C(=O)[C@@H]2CCCN2C1=O the data give PAMPA 1.5 × 10^-6 cm/s. For CC(C)C[C@@H]1C(=O)N[C@@H](Cc2ccccc2)CC(=O)N2CCC[C@H]2C(=O)N(Cc2ccccc2)CC(=O)N[C@@H](Cc2ccccc2)C(=O)N2CCC[C@@H]2C(=O)N(C)[C@H](C)C(=O)N1C the data give PAMPA 1.6 × 10^-6 cm/s.

The first 2 entries again:

| structure (SMILES) | PAMPA (10^-6 cm/s) |
|---|---|
| CC(C)C[C@@H]1C(=O)N(C)[C@@H](CC(C)C)C(=O)N2CCC[C@H]2C(=O)N(C)[C@@H](CC(C)C)C(=O)N[C@@H](Cc2ccccc2)C(=O)N[C@@H](Cc2ccccc2)CC(=O)N1C | 6.5 |
| CC(C)C[C@@H]1NC(=O)[C@@H](C)NC(=O)[C@H](Cc2ccccc2)NC(=O)[C@@H](CC(C)C)NC(=O)[C@H]2CCCN2C(=O)[C@@H](CC(C)C)N(C)C1=O | 1.2 |